Assay results: publication PMC5850989 (Toxicology letters, 2016)

Legend:
[1] = oral administration; ref Panel, 2014; cited from earlier work
CYP 450 enzymes = conditions: ref Mei et al., 2009; cited from earlier work
[2] = assay type: in vivo, SCID mice; conditions: Bea-treated mice, 5 mg/kg i.p.
[3] = assay type: in vivo, CB-17 scid/scid mice; conditions: KB-3-1 xenograft
[4] = Evaluation of toxicological effects: body weight, behavior, histology; assay type: in vivo, SCID mice; conditions: 5 mg/kg i.p., short-term and 9-day schedules
[5] = 5 mg/kg b.w. i.p. daily, 9 days, mean ± SD (n = 4)

Q: Which results are given for Beauvericin?
A: LD50 [1]: ≥ 100 mg/kg b.w.; Inhibition of CYP 450 enzymes (CYP 450 enzymes): potent inhibitor of diverse CYP 450 enzymes; Metabolites in the assayed samples [2]: no metabolites were detected; Concentration in serum [3, 5]: 2.6 ± 0.6 µg/kg; Concentration in tumor [3, 5]: 3.4 ± 0.4 µg/kg; Degradation products (metabolites) in tumor tissues ([3]; 9-day treatment, 5 mg/kg i.p.): no degradation products could be found; Tumor level compared to serum ([3]; 9-day treatment): 1.3 fold; Apparent signs of toxicity (food and fluid consumption, fatigue, body weight alterations) [4]: None of the treatment schedules showed apparent signs of toxicity
